One molecule from patent US7642270B2, “5-oxo-5,8-dihydro-pyrido-pyrimidine as inhibitors of c-fms kinase” (Janssen Pharmaceutica N.V., priority 2005, dated 2010) can be followed below.

Protein sequences, listed by entry. Tags and fused reporters are not part of them. Residues count along the entry.
UniProt P07333, 20-972: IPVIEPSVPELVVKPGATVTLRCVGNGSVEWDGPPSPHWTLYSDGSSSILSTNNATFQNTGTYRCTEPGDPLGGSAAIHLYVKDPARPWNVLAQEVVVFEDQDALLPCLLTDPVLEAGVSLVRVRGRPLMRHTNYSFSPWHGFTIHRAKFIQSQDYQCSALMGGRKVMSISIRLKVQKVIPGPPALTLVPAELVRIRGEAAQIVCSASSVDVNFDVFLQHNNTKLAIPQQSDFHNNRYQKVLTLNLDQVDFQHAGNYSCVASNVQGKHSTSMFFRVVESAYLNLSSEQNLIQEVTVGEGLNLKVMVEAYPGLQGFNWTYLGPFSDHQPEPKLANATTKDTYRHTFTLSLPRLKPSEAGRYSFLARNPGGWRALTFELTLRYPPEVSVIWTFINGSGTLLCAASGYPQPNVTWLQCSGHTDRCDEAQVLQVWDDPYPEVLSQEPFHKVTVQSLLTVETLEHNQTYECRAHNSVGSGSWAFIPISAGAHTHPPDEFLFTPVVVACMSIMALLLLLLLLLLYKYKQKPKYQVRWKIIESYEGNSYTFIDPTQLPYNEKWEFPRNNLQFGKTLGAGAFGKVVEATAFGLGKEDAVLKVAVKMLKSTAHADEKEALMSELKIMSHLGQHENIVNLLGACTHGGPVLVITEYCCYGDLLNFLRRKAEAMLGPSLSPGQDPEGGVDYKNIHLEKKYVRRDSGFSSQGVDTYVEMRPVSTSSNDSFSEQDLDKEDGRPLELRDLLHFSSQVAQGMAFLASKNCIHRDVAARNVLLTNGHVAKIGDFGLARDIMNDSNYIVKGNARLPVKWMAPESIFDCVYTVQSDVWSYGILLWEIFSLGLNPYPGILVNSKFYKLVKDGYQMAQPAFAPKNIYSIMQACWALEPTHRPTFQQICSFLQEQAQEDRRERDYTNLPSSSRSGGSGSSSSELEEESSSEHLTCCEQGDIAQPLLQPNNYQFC

In the assay the target is c-fms (Homo sapiens, UniProt P07333). The assay is described as follows: c-fms autophosphorylation, fluorescence polarization competition immunoassay. Type of assay: biochemical. As to conditions: 10 nM c-fms, 1 mM ATP, 5 mM MgCl2, 45 min room temperature; averages of three independent measurements. (In fluorescence polarisation assays a small probe gives low polarisation when free and higher when bound to something large.)

A word on the IC50: it is the concentration that gives 50% inhibition. A low value points to higher potency.

On to `CC1CN(c2ccc(Nc3ncc4c(=O)c(C(N)=O)cn(-c5ccc6c(c5)CCC6)c4n3)cc2)CC(C)N1` (stereo not shown) [Cpd 43, 2-[4-(3,5-Dimethyl-piperazin-1-yl)-phenylamino]-8-indan-5-yl-5-oxo-5,8-dihydro-pyrido[2,3-d]pyrimidine-6-carboxylic acid amide], for which the concentration for half-maximal inhibition (IC50) was determined as 7 nM.
